# Assay outcomes as filed in PubChem BioAssay.
# Nrf2 ARE act: activators of Nrf2 (ARE) signaling | AREc32 ARE-luciferase reporter (MCF7-derived line), luminescence, 24 h | Potency, µM (series often up to 46.1 µM), for the others: at the top dose activation, actives largely listed as activators | 410,000 tested, 0.31% active | AID 624171; also: potency is read from the fitted curve at half-maximal effect; % of control where 0% means no effect; nearly all actives have a fitted effect of over 65% in size
#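 Luciferase luminescence (Steady-Glo, 30 min at room temperature) served as the read-out of ARE activation in AREc32 cells treated with compounds for 24 hr at 37 deg C.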
# ClpP mod: qHTS Assay for Activators of ClpP | ATP-dependent Clp protease proteolytic subunit (Bacillus subtilis (strain 168)), P80244 | purified B. subtilis ClpP, FRET peptide cleavage, 20 min | Potency, µM (titrated, usually from 57.5 µM), for the others: at the highest dose activity change, negative = active | 340,000 tested, 1.9% active; active = well fitted falling curve with a large enough effect; inconclusive = small, poorly fitted or top-dose-only effect; inactive = no such curve, though single readings can be large or run the other way; also: potency is read from the fitted curve at half-maximal effect; the source files actives as falling curves though it sought activators and does not explain the sign; nearly all actives have a fitted effect of over 65% in size
#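 Buffer: 100 mM Tris/HCl pH8, 100 mM KCl, 0.05% low protease BSA, 2.5% glycerol, 0.01% Tween-20. ClpP 10 microg/mL final; 20 min RT; delta FRET normalized to ADEP and DMSO controls.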
# A549 viability: counter-screen for Nrf2 inhibitors: cytotoxicity in A549 cells | A549 ARE-Fluc cells, CellTiter-Fluor viability, 18-24 h | Potency, µM (titrated, usually from 46 µM), without a hit: top-dose activity change, negative = cytotoxicity, most hits filed as inhibitors | 390,000 tested, 0.16% active; also: potency is read from the fitted curve at half-maximal effect; % is scaled to controls: 0 for no effect and ±100 for the full control effect
#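 Cytotoxicity counterscreen: CellTiter-Fluor fluorescence was measured in A549 ARE_Fluc cells after 18-24 h of compound exposure in a concentration series. The subsequent BugLite luminescent read reports ARE-luciferase activity.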
# Nrf2 block: blocks Nrf2 signaling. A549 ARE-Fluc reporter, luciferase luminescence, 18-24 h. Potency, µM (titrated, usually from 46 µM), for the others: at the highest dose activity change, negative = inhibition, most hits filed as inhibitors. 360,000 tested, 2.1% active. AID 504444; also: potency is read from the fitted curve at half-maximal effect; % is scaled to controls: 0 for no effect and ±100 for the full control effect; nearly all actives have a fitted effect of over 60% in size
#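 Quantitative HTS in A549 cells stably bearing an antioxidant response element-firefly luciferase construct. Inhibition of Nrf2-driven transcription was scored by luminescence after 18-24 h of compound exposure at 37 °C.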
# TCR activator: activates T cell receptor signaling. 330,000 tested, under 10 active. Potency, µM (doses to about 9.22 µM), for the others: at the top dose activation of IL-2 secretion, actives largely listed as activators. primary human leukocytes, anti-CD3, IL-2 HTRF, 48 h; also: % of control where 0% means no effect
#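 Compounds are tested in HTS on primary human leukocytes co-incubated with a-CD3 beads for 48 hr. IL-2 output is measured by time-resolved FRET.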
# miR-21 reporter: miR-21 reporter, rising signal; HeLa miR-21 FLuc reporter, luciferase, 48 h; Potency, µM (doses to about 38.3 µM), for inactives: at the highest dose reporter change, positive = more light; 340,000 tested, under 10 active; AID 2288; active = well fitted rising curve with a large enough effect; inconclusive = small, poorly fitted or top-dose-only effect; inactive = no such curve, though single readings can be large or run the other way;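 further: % of control where 0% means no effect; miR-21 action dims this reporter so a rising signal means less miR-21 action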
#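 HeLa cells stably expressing CMV-driven firefly luciferase with a downstream miR-21 binding sequence, endogenously expressing miR-21, were treated with titrations (up to about 40uM final) for 48 hours at 37 degree Celsius. Luciferase luminescence was read after lysis.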
# * marks the source's active call; other numbers are inactive results; ? = inconclusive; nt = no result given; [ ] = remark or other dose. Sampled rows, rich in hits. Any-hit rate of the full collection: about 3.7%. Unless noted, calls follow the shape of the dose curve; as a rule, active = well fitted curve in the direction sought with a large enough effect; inconclusive = small, poorly fitted or top-dose-only effect, or another doubt; inactive = no such curve, though single readings can be large; an effect the other way counts as inactive or inconclusive.
# Below each SMILES – Nrf2 ARE act | ClpP mod | A549 viability | Nrf2 block | TCR activator | miR-21 reporter
CCCCNS(=O)(=O)c1ccc(S(=O)(=O)NCc2ccncc2)cc1
→ 0% | -1% | -16% | 7.3µM* | 7%[46.1 µM] | 12%
CCCCc1ccc(S(=O)(=O)NCCc2ccncc2)cc1
→ 0% | 14% | -2% | nt | -5% | 11%
COc1ccc(-c2nn(-c3ccccc3)cc2C(=O)N2CCN(S(=O)(=O)c3cccc(F)c3)CC2)cc1
→ 0% | nt | -13% | -6% | -3% | nt
Cc1ccc(S(=O)(=O)N2CCN(c3nc(-c4ncco4)nc4ccccc34)CC2)cc1
→ nt | -1% | -18% | ? | nt | nt
CC(C)c1nc(NCCO)c(C#N)c2c1CCCC2
→ 0% | nt | 13% | ? | -22% | 13%
CC(C)c1nc(NCc2ccccc2)c(C#N)c2c1CCCC2
→ -1% | 8.9µM* | 16% | ? | -3% | 0%
O=C(CN1C(=O)NC2(CCCCC2)C1=O)Nc1ccc(Cl)c(S(=O)(=O)N2CCOCC2)c1
→ 1% | -4% | -8% | 23µM* | 1% | nt
Cc1ccc(NC(=O)CN2C(=O)NC3(CCCCC3)C2=O)cc1S(=O)(=O)N1CCOCC1
→ 0% | -7% | -6% | -22% | -3% | nt
O=C(Cc1cccs1)Nc1ccc(Cl)c(S(=O)(=O)N2CCOCC2)c1
→ 1% | nt | -7% | 16µM* | -2% | nt
CS(=O)(=O)N1CCN(c2ccccc2NC(=O)c2cc(Br)ccc2Cl)CC1
→ 3% | nt | 4% | -17% | 4% | -1%

# (further entries)
# Below each SMILES – Nrf2 ARE act | ClpP mod | A549 viability | Nrf2 block | TCR activator | miR-21 reporter
CS(=O)(=O)N1CCN(c2ccccc2NC(=O)c2ccc(-c3ccc(Br)cc3)o2)CC1
→ 0% | 32µM* | -1% | 4% | 4% | -2%
O=C(NCc1cccs1)C(=O)NCC(c1ccco1)N1CCN(c2ccccc2F)CC1 (centres undefined)
→ 0% | 0% | 10% | 21µM* | -5% | 13%
O=C(NCC(c1cccnc1)N1CCN(c2ccccc2F)CC1)OCc1ccccc1 (centres undefined)
→ 1% | 1% | -22% | 21µM* | -5% | 15%
COc1ccc(NC(C)C(=O)N/N=C/c2ccccc2OCc2cccc(Br)c2)cc1 (centres undefined)
→ 0% | nt | 1% | ? | -2%[46.1 µM] | -8%
Cc1ccccc1NC(C)C(=O)N/N=C/c1ccccc1OCc1cccc(Br)c1 (centres undefined)
→ 0% | -12% | -25% | 15µM* | -8% | 6%
CC(=O)c1c(N2CCN(c3ccc(F)cc3)CC2)nc(=S)n(Cc2ccccc2)c1C
→ 0%[9.22 µM] | 25µM* | 13% | -6% | 2%[46.1 µM] | 1%
CC(=O)c1c(N2CCN(Cc3ccccc3)CC2)nc(=S)n(Cc2ccccc2)c1C
→ 1% | -3% | ? | 21µM* | -12%[46.1 µM] | -6%
Cc1ccc(CNc2nc3c([nH]2)c(=O)n(C)c(=O)n3C)cc1
→ 0% | 20µM* | -24% | 9.2µM* | -11% | -1%
CCOC(=O)C1CCN(C(=O)CN2C(=O)C(C(C)C)Oc3ccccc32)CC1 (centres undefined)
→ 10% | 3.5µM* | 1% | -9% | 1% | -11%
CCOC(=O)C1CCN(C(=O)CN2C(=O)c3cccnc3Oc3ccccc32)CC1
→ 0% | -4% | 0% | -3% | 7% | 3%

# Further entries.
# Below each SMILES – Nrf2 ARE act | ClpP mod | A549 viability | Nrf2 block | TCR activator | miR-21 reporter
C/C=C(/C)C(=O)OC1CC(C)(C)C[C@H]2C3=CC[C@@H]4[C@@]5(C)CCC(O[C@@H]6O[C@@H](C(=O)O)[C@@H](O)C(O[C@@H]7OC[C@H](O)[C@@H](O)[C@@H]7O[C@@H]7OC(CO)C(O)[C@@H](O)[C@@H]7O)C6O[C@@H]6OC(CO)C(O)C(O)C6O)[C@@](C)(CO)[C@@H]5CC[C@]4(C)[C@]3(C)CC(O)[C@@]12CO (some centres undefined)
→ -3% | 1% | ? | ? | -38% | nt
C/C=C(\C)C(=O)OC1[C@H](OC(C)=O)C2(CO)C(CC1(C)C)C1=CCC3C4(C)CCC(O[C@@H]5O[C@H](C(=O)O)[C@@H](O[C@@H]6O[C@H](CO)[C@@H](O)[C@H](O)[C@H]6O)[C@H](O)[C@H]5O[C@H]5O[C@H](CO)[C@@H](O)[C@H](O)[C@H]5O)[C@](C)(CO)C4CCC3(C)[C@]1(C)C[C@H]2O (some centres undefined)
→ -3% | 0% | ? | 18µM* | 3% | nt
CC(NC(=O)OCc1ccccc1)C(=O)Oc1cc2oc(=O)cc(-c3ccccc3)c2cc1Cl (centres undefined)
→ -1% | 25µM* | 2% | 0% | 3%[46.1 µM] | 13%
O=C1CC(N2CCN(C3CC(=O)N(CCc4ccccc4)C3=O)CC2)C(=O)N1CCc1ccccc1 (centres undefined)
→ 0% | 2% | 13% | -1% | 16% | 0%
O=C1CC(N2CCN(C/C=C/c3ccccc3)CC2)C(=O)N1CCc1ccccc1 (centres undefined)
→ 5% | -1% | 1% | 9.2µM* | -1% | 13%
Cc1ccccc1OCC(=O)Nc1ccc2c(c1)Cc1ccccc1-2
→ 0% | -6% | 6% | nt | -5% | -8%
Cc1ccc(OCCC(=O)OCC(=O)Nc2ccc3[nH]c(=O)[nH]c3c2)cc1
→ 0% | -2% | 4% | 3% | nt | nt
CC(C)(C)C(=O)Nc1ccc2c(c1)C(=O)C(=O)c1ccccc1-2
→ nt | 4% | ? | 21µM* | nt | nt
Cc1ccccc1OCC(=O)Nc1ccc2c(c1)C(=O)c1ccccc1C2=O
→ 0% | -1% | ? | 15µM* | -6% | -49%
Cc1ccccc1OCCC(=O)OCC(=O)Nc1ccc2[nH]c(=O)[nH]c2c1
→ 0% | 32µM* | 1% | 16% | 0% | nt

# In the list so far, these have bromine:
# Below each SMILES – Nrf2 ARE act | ClpP mod | A549 viability | Nrf2 block | TCR activator | miR-21 reporter
CS(=O)(=O)N1CCN(c2ccccc2NC(=O)c2cc(Br)ccc2Cl)CC1
→ 3% | nt | 4% | -17% | 4% | -1%
CS(=O)(=O)N1CCN(c2ccccc2NC(=O)c2ccc(-c3ccc(Br)cc3)o2)CC1
→ 0% | 32µM* | -1% | 4% | 4% | -2%
COc1ccc(NC(C)C(=O)N/N=C/c2ccccc2OCc2cccc(Br)c2)cc1 (centres undefined)
→ 0% | nt | 1% | ? | -2%[46.1 µM] | -8%
Cc1ccccc1NC(C)C(=O)N/N=C/c1ccccc1OCc1cccc(Br)c1 (centres undefined)
→ 0% | -12% | -25% | 15µM* | -8% | 6%

# The list continues:
# Below each SMILES – Nrf2 ARE act | ClpP mod | A549 viability | Nrf2 block | TCR activator | miR-21 reporter
Cc1ccc(S(=O)(=O)Nc2c(C(=O)O)[nH]c3ccccc23)c(C)c1
→ 4% | 1% | 1% | 7% | -2% | -8%
Cc1ccccc1CS(=O)(=O)c1cnc2ccccc2n1
→ 8.9µM* | -4% | 0% | -13% | 0% | 19%
Cc1cccc(C)c1NC(=O)C(c1ccccc1OC(F)(F)F)N1CCN(C/C=C/c2ccccc2)CC1 (centres undefined)
→ 5% | 2% | nt | nt | nt | nt
CC(=O)N1CCc2cc3nc(C)cc(C)c3cc21
→ 0% | 25µM* | 13% | -14% | -10% | -12%
CC(=O)N1CCc2nc3ccccc3cc21
→ 0% | ? | nt | nt | nt | nt
CC1=CC(C)(C)Nc2ccc(Cc3ccc4c(c3)C(C)=CC(C)(C)N4)cc21
→ 0% | 3% | -1% | ? | 6% | 7%
